This note sets out measurements from patent publication US20260070899A1, “N-(2-(4-CYANOTHIAZOLIDIN-3-YL)-2-OXOETHYL)-QUINOLINE-4-CARBOXAMIDES” (AstraZeneca AB, priority 2022, published 2026).

Molecules are shown by their SMILES.

Usually IC50 stands for the concentration needed to halve the response being measured. The low end stands for inhibition by little substance, the high end for a need for much substance.

This assay has as its target T1, human Fibroblast activation protein alpha (hFAP) (Homo sapiens, UniProt Q12884).
T1 construct: Proteros, 38-760 (PR-0071); purchased Proteros PR-0071
T1 sequence (Q12884 38-760): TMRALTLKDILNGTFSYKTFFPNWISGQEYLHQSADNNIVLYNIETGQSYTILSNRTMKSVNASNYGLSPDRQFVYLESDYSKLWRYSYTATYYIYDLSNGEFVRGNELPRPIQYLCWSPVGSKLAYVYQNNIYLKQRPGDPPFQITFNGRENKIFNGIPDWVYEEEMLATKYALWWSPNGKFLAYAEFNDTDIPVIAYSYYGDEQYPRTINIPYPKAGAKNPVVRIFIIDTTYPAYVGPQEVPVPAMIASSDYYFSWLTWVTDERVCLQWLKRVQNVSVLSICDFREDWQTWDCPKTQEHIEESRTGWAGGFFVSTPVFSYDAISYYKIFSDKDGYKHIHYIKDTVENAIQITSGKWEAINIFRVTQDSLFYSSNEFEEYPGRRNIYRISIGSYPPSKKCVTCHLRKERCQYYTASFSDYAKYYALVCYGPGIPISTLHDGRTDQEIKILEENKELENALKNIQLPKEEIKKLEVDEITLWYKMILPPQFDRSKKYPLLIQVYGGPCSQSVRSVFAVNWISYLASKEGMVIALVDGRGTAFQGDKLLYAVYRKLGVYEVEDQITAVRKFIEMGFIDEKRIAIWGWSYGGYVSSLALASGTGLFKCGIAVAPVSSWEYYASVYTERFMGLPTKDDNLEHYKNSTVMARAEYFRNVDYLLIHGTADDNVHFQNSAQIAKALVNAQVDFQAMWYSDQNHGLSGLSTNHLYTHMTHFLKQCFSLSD
Description: hFAP inhibition assay (tight binders). The format is biochemical. The conditions noted are these: Ala-Pro-AMC 20 μM, n = 1 or geometric mean (n = 2-5). Here is the method:
Data were analyzed in Genedata Screener®.
`CC1(C)CC(c2ccc3nccc(C(=O)NCC(=O)N4CSC[C@H]4C#N)c3c2)CO1` (mixture of isomers) [Example 61, N-(2-((R)-4-Cyanothiazolidin-3-yl)-2-oxoethyl)-6-(5,5-dimethyltetrahydrofuran-3-yl)quinoline-4-carboxamide] yielded a 50% inhibitory concentration (IC50) of 0.25 nM.

Molecule `N#C[C@@H]1CSCN1C(=O)CNC(=O)c1ccnc2ccc(CC3CCOC3)cc12` (mixture of isomers) [Example 65, N-(2-((R)-4-Cyanothiazolidin-3-yl)-2-oxoethyl)-6-(((RS)-tetrahydrofuran-3-yl)methyl)quinoline-4-carboxamide] had an IC50 of 0.084 nM.

Consider `CC1(C)CC(c2ccc3nccc(C(=O)NCC(=O)N4CSC[C@H]4C#N)c3c2)CCO1` (mixture of isomers) [Example 68, N-(2-((R)-4-Cyanothiazolidin-3-yl)-2-oxoethyl)-6-((RS)-2,2-dimethyltetrahydro-2H-pyran-4-yl)quinoline-4-carboxamide], for which half-maximal inhibition (IC50) was put at 0.1 nM.

In turn, `N#C[C@@H]1CSCN1C(=O)CNC(=O)c1ccnc2ccc([C@H]3CC[C@H](C#N)CC3)cc12` (single isomer, unassigned) [Example 54, 6-((1r,4R*)-4-Cyanocyclohexyl)-N-(2-((R)-4-cyanothiazolidin-3-yl)-2-oxoethyl)quinoline-4-carboxamide] yielded an IC50 of 0.041 nM.

Molecule `N#C[C@@H]1CSCN1C(=O)CNC(=O)c1ccnc2ccc([C@H]3CC[C@H](C#N)CC3)cc12` (single isomer, unassigned) [Example 55, 6-((1r,4R*)-4-Cyanocyclohexyl)-N-(2-((R)-4-cyanothiazolidin-3-yl)-2-oxoethyl)quinoline-4-carboxamide] had an IC50 of 0.035 nM.

With `CO[C@H]1C[C@](F)(c2ccc3nccc(C(=O)NCC(=O)N4CSC[C@H]4C#N)c3c2)C1` (single isomer, unassigned) [Example 62, N-(2-((R)-4-Cyanothiazolidin-3-yl)-2-oxoethyl)-6-((1r,3R*)-1-fluoro-3-methoxycyclobutyl)quinoline-4-carboxamide], the 50% inhibitory concentration (IC50) is 0.094 nM.

For `CO[C@H]1C[C@](F)(c2ccc3nccc(C(=O)NCC(=O)N4CSC[C@H]4C#N)c3c2)C1` (single isomer, unassigned) [Example 63, N-(2-((R)-4-Cyanothiazolidin-3-yl)-2-oxoethyl)-6-((1r,3R*)-1-fluoro-3-methoxycyclobutyl)quinoline-4-carboxamide], the IC50 came out at 0.049 nM.

`CO[C@H]1CC[C@H](c2ccc3nccc(C(=O)NCC(=O)N4CSC[C@H]4C#N)c3c2)CC1` (single isomer, unassigned) [Example 78, N-(2-((R)-4-Cyanothiazolidin-3-yl)-2-oxoethyl)-6-((1r,4R*)-4-methoxycyclohexyl)quinoline-4-carboxamide] showed an IC50 of 0.033 nM.

Consider `CO[C@H]1CC[C@@H](c2ccc3nccc(C(=O)NCC(=O)N4CSC[C@H]4C#N)c3c2)CC1` (single isomer, unassigned) [Example 79, N-(2-((R)-4-Cyanothiazolidin-3-yl)-2-oxoethyl)-6-((1r,4R*)-4-methoxycyclohexyl)quinoline-4-carboxamide], for which 0.067 nM corresponded to half-maximal inhibition (IC50).

As to `N#C[C@@H]1CSCN1C(=O)CNC(=O)c1ccnc2ccc(OCC(F)F)cc12` [Example 2, (R)—N-(2-(4-Cyanothiazolidin-3-yl)-2-oxoethyl)-6-(2,2-difluoroethoxy)quinoline-4-carboxamide], the half-inhibitory concentration (IC50) amounted to 0.096 nM.

In the case of `CC(C)(F)COc1ccc2nccc(C(=O)NCC(=O)N3CSC[C@H]3C#N)c2c1` [Example 3, (R)—N-(2-(4-Cyanothiazolidin-3-yl)-2-oxoethyl)-6-(2-fluoro-2-methylpropoxy)quinoline-4-carboxamide], half-maximal inhibition (IC50) required 0.15 nM.

With `COCCOc1ccc2nccc(C(=O)NCC(=O)N3CSC[C@H]3C#N)c2c1` [Example 4, (R)—N-(2-(4-Cyanothiazolidin-3-yl)-2-oxoethyl)-6-(2-methoxyethoxy)quinoline-4-carboxamide], the half-maximal inhibitory concentration (IC50) was 0.063 nM.

The molecule `N#C[C@@H]1CSCN1C(=O)CNC(=O)c1ccnc2ccc(OCC3CC3)cc12` [Example 5, (R)—N-(2-(4-Cyanothiazolidin-3-yl)-2-oxoethyl)-6-(cyclopropyl-methoxy)quinoline-4-carboxamide] returned a half-maximal inhibitory concentration (IC50) of 0.042 nM.

`N#C[C@@H]1CSCN1C(=O)CNC(=O)c1ccnc2ccc(OC3CCOCC3)cc12` [Example 6, (R)—N-(2-(4-Cyanothiazolidin-3-yl)-2-oxoethyl)-6-((tetrahydro-2H-pyran-4-yl)oxy)quinoline-4-carboxamide]: the IC50 came to 0.089 nM.

`N#C[C@@H]1CSCN1C(=O)CNC(=O)c1ccnc2ccc(OC(CF)CF)cc12` [Example 7, (R)—N-(2-(4-Cyanothiazolidin-3-yl)-2-oxoethyl)-6-((1,3-difluoropropan-2-yl)oxy)quinoline-4-carboxamide]: the IC50 was determined as 0.085 nM.

As to `N#C[C@@H]1CSCN1C(=O)CNC(=O)c1ccnc2ccc(OCC3CC(F)(F)C3)cc12` [Example 8, (R)—N-(2-(4-Cyanothiazolidin-3-yl)-2-oxoethyl)-6-((3,3-difluorocyclobutyl)methoxy)quinoline-4-carboxamide], the IC50 is 0.12 nM.

As to `N#CCOc1ccc2nccc(C(=O)NCC(=O)N3CSC[C@H]3C#N)c2c1` [Example 10, (R)-6-(Cyanomethoxy)-N-(2-(4-cyanothiazolidin-3-yl)-2-oxoethyl)quinoline-4-carboxamide], the IC50 was found to be 0.085 nM.

For `CC(F)(F)COc1ccc2nccc(C(=O)NCC(=O)N3CSC[C@H]3C#N)c2c1` [Example 11, (R)—N-(2-(4-Cyanothiazolidin-3-yl)-2-oxoethyl)-6-(2,2-difluoropropoxy)quinoline-4-carboxamide], it took 0.07 nM to reach half-maximal inhibition (IC50).

`N#C[C@@H]1CSCN1C(=O)CNC(=O)c1ccnc2ccc(C3(c4ccnc(C(F)(F)F)c4)CC3)cc12` [Example 13, (R)—N-(2-(4-Cyanothiazolidin-3-yl)-2-oxoethyl)-6-(1-(2-(trifluoromethyl)pyridin-4-yl)cyclopropyl)quinoline-4-carboxamide]: the IC50 stood at 0.18 nM.

In turn, `N#C[C@@H]1CSCN1C(=O)CNC(=O)c1ccnc2ccc(C3(O)CCOCC3)cc12` [Example 15, (R)—N-(2-(4-Cyanothiazolidin-3-yl)-2-oxoethyl)-6-(4-hydroxy-tetrahydro-2H-pyran-4-yl)quinoline-4-carboxamide] showed an IC50 of 0.12 nM.

`CC(C)(O)c1ccc2nccc(C(=O)NCC(=O)N3CSC[C@H]3C#N)c2c1` [Example 16, (R)—N-(2-(4-Cyanothiazolidin-3-yl)-2-oxoethyl)-6-(2-hydroxypropan-2-yl)quinoline-4-carboxamide] had an IC50 of 0.26 nM.

Molecule `N#C[C@@H]1CSCN1C(=O)CNC(=O)c1ccnc2ccc(C(F)(F)F)cc12` [Example 17, (R)—N-(2-(4-Cyanothiazolidin-3-yl)-2-oxoethyl)-6-(trifluoromethyl)-quinoline-4-carboxamide] showed a concentration for half-maximal inhibition (IC50) of 0.43 nM.

Regarding `COC(C)(C)c1ccc2nccc(C(=O)NCC(=O)N3CSC[C@H]3C#N)c2c1` [Example 18, (R)—N-(2-(4-Cyanothiazolidin-3-yl)-2-oxoethyl)-6-(2-methoxypropan-2-yl)quinoline-4-carboxamide], the IC50 was 0.28 nM.

As for `Cc1nn(C)nc1Cc1ccc2nccc(C(=O)NCC(=O)N3CSC[C@H]3C#N)c2c1` [Example 19, (R)—N-(2-(4-Cyanothiazolidin-3-yl)-2-oxoethyl)-6-((2,5-dimethyl-2H-1,2,3-triazol-4-yl)methyl)quinoline-4-carboxamide], the midpoint of inhibition, the IC50, lay at 0.11 nM.

In turn, `N#C[C@@H]1CSCN1C(=O)CNC(=O)c1ccnc2ccc(C3CCOCC3)cc12` [Example 20, (R)—N-(2-(4-Cyanothiazolidin-3-yl)-2-oxoethyl)-6-(tetrahydro-2H-pyran-4-yl)quinoline-4-carboxamide] displayed an IC50 of 0.095 nM.

Molecule `N#C[C@@H]1CSCN1C(=O)CNC(=O)c1ccnc2ccc(C3=CCOCC3)cc12` [Example 22, (R)—N-(2-(4-Cyanothiazolidin-3-yl)-2-oxoethyl)-6-(3,6-dihydro-2H-pyran-4-yl)quinoline-4-carboxamide] gave an IC50 of 0.042 nM.

Turning to `CCOC1(c2ccc3nccc(C(=O)NCC(=O)N4CSC[C@H]4C#N)c3c2)CCOCC1` [Example 23, (R)—N-(2-(4-Cyanothiazolidin-3-yl)-2-oxoethyl)-6-(4-ethoxytetrahydro-2H-pyran-4-yl)quinoline-4-carboxamide], the IC50 stood at 0.16 nM.

Consider `N#C[C@@H]1CSCN1C(=O)CNC(=O)c1ccnc2ccc(CN3CCOCC3)cc12` [Example 24, (R)—N-(2-(4-Cyanothiazolidin-3-yl)-2-oxoethyl)-6-(morpholino-methyl)quinoline-4-carboxamide], for which the IC50 came to 0.19 nM.

Consider `CCOCc1ccc2nccc(C(=O)NCC(=O)N3CSC[C@H]3C#N)c2c1` [Example 27, (R)—N-(2-(4-cyanothiazolidin-3-yl)-2-oxoethyl)-6-(ethoxymethyl)-quinoline-4-carboxamide], for which the IC50 was < 0.16 nM.
